Counter-ions that a name gives are not always drawn.
Target: CCR2 (Homo sapiens (Human), UniProt P41597)
Test: MCP-1 Receptor Binding Assay in THP-1 Cells
Conditions: 0.5 nM 125I labeled MCP-1, 2 hours at 30° C., average of the two most similar values where more than one IC50, dihydrochloride, read-out: Inhibition of MCP-1 Binding IC50 CCR2 Binding
Experimental: Compounds of the invention were subjected to various representative biological tests. The results of these tests are intended to illustrate the invention in a non-limiting fashion. MCP-1 Receptor Binding Assay in THP-1 Cells Human monocytic cell line THP-1 cells were obtained from American Type Culture Collection (Manassas, Va., USA). The THP-1 cells were grown in RPMI-1640 (RPMI: Roswell Park Memorial Institute Medium-cell culture growth media) supplemented with 10% fetal bovine serum in a humidified 5% CO2 atmosphere at 37° C. The cell density was maintained between […].
THP-1 (cells were incubated with 0.5 nM ^125I labeled MCP-1 (Perkin-Elmer Life Sciences, Inc. Boston, Mass.) in the presence of varying concentrations of either unlabeled MCP-1 (R & D Systems, Minneapolis, Minn.) or test compound for 2 hours at 30° C. in a 96 well plate. Cells were then harvested onto a filter plate, dried, and 20 μL of Microscint 20 was added to each well. Plates were counted in a TopCount NXT, Microplate Scintillation & Luminescence Counter (Perkin-Elmer Life Sciences, Inc. Boston, Mass.). Blank values (buffer only) were subtracted from all values and drug treated values were compared to vehicle treated values. 1 μM cold MCP-1 was used for nonspecific binding.
Table 1 lists IC50 values for inhibition of MCP-1 binding to CCR2 obtained for test compounds of the invention. […] Where more than one IC50 value was available, the average of the two most similar values is reported.

The chains behind the UniProt entries cited, without tags or fusion partners. A line that says so, or that is headed by a name, gives the form on record, which may keep a tag or linker.
UniProt P41597, other isoform, or with tags, fused parts or gaps isoform P41597-2: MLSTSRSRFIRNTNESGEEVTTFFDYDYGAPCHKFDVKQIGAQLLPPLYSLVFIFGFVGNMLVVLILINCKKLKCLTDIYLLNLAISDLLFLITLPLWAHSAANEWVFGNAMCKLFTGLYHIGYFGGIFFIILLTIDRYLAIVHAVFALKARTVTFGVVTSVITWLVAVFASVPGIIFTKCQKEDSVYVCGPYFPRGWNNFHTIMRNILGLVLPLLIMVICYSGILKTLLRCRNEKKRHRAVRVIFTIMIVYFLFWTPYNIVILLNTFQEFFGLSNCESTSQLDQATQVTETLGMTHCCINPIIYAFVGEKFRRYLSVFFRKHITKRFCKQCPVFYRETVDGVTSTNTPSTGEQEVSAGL

For `NC(=O)C(N[C@H]1CC[C@H](c2c[nH]c3ccccc32)CC1)C1CCN(C(=O)/C=C/c2cc(F)cc(F)c2)CC1` (stereo partly drawn) [Example 1b, R,S-2-[4-(1H-Indol-3-yl)-trans-cyclohexylamino]-2-[1-(trans-3,5-difluorocinnamoyl)-piperidin-4-yl]-acetamide dihydrochloride], the IC50 was 14 nM.

Same assay, conditions: 0.5 nM 125I labeled MCP-1, 2 hours at 30° C., average of the two most similar values where more than one IC50, read-out: Inhibition of MCP-1 Binding IC50 CCR2 Binding

Compared with `NC(=O)C(N[C@H]1CC[C@@H](c2c[nH]c3ccccc32)CC1)C1CCN(C(=O)/C=C/c2cc(F)c(F)c(F)c2)CC1` (stereo partly drawn) [Example 37, R,S-2-[4-(1H-Indol-3-yl)-cis-cyclohexylamino]-2-[1-(trans-3,4,5-trifluorocinnamoyl)-piperidin-4-yl]-acetamide], `NC(=O)C(NC1CCC(c2c[nH]c3ccccc23)CC1)C1CCN(C(=O)/C=C/c2cc(F)c(F)c(F)c2)CC1` (stereo not drawn) [Example 35, 2-[4-(1H-Indol-3-yl)-cyclohexylamino]-2-[1-(trans-3,4,5-trifluorocinnamoyl)-piperidin-4-yl]-acetamide] is 16-fold lower in IC50: 406 nM for the first, 25 nM for the second. The second is the more potent here.

Going from `NC(=O)C(N[C@H]1CC[C@@H](c2c[nH]c3ccccc32)CC1)C1CCN(C(=O)/C=C/c2cc(F)cc(F)c2)CC1` (stereo partly drawn) [Example 3, 2-[4-(1H-Indol-3-yl)-cis-cyclohexylamino]-2-[1-(trans-3,5-difluorocinnamoyl)-piperidin-4-yl]-acetamide] to `NC(=O)C(N[C@H]1CC[C@H](c2c[nH]c3ccccc32)CC1)C1CCN(C(=O)/C=C/c2cc(F)cc(F)c2)CC1` (stereo partly drawn) [Example 1a, R,S-2-[4-(1H-Indol-3-yl)-trans-cyclohexylamino]-2-[1-(trans-3,5-difluorocinnamoyl)piperidin-4-yl]-acetamide], the IC50 falls from 740 nM to 13 nM (57-fold). The second is the more potent here.

For `NC(=O)C(N[C@H]1CC[C@H](c2c[nH]c3ccccc32)CC1)C1CCN(C(=O)/C=C/c2cc(F)c(F)c(F)c2)CC1` (single isomer, unassigned) [Example 36, R,S-2-[4-(1H-Indol-3-yl)-trans-cyclohexylamino]-2-[1-(trans-3,4,5-trifluorocinnamoyl)-piperidin-4-yl]-acetamide], the IC50 was 8 nM.
